ChEMBL document CHEMBL4330113, “Discovery of new quinazoline derivatives as irreversible dual EGFR/HER2 inhibitors and their anticancer activities - Part 1” (Bioorg Med Chem Lett, 2019)

Protein sequences, listed by entry. Tags and fused reporters are not part of them.
UniProt P00533, whole entry: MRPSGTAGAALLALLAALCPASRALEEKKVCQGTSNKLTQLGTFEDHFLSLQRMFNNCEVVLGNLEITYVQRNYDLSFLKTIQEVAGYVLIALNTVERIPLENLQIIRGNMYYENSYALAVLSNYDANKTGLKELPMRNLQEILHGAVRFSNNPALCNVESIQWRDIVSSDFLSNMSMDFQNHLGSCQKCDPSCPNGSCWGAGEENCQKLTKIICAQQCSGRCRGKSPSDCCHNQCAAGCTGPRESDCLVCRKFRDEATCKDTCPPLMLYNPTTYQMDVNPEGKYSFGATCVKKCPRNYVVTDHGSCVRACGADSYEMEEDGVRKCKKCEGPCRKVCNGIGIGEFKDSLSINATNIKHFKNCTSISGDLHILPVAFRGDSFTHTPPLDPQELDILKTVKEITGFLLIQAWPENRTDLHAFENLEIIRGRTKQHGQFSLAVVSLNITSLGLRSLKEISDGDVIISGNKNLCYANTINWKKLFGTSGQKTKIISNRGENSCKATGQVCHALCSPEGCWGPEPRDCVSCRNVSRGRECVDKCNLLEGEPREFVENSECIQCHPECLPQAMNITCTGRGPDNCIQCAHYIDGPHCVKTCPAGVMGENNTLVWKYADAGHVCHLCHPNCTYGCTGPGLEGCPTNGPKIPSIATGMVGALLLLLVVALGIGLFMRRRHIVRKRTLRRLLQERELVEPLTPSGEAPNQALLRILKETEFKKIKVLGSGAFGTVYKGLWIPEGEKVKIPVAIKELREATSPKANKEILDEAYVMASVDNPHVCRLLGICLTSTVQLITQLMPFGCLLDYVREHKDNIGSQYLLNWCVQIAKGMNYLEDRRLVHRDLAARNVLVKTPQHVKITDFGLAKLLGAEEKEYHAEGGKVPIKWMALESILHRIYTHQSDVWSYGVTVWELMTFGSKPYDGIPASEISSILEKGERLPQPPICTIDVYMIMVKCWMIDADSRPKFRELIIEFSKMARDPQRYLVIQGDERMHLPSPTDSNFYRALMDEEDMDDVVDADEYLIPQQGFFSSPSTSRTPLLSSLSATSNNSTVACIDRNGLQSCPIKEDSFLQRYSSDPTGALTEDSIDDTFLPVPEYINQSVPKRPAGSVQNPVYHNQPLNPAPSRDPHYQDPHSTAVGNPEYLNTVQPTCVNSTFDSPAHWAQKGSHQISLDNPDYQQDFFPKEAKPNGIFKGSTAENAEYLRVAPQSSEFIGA

Biological target: Epidermal growth factor receptor (Homo sapiens, UniProt P00533)
Assay: Inhibition of recombinant human GST-tagged EGFR catalytic domain (668 to 1210 residues) expressed in baculovirus expression system using TK-biotin peptide as substrate measured after 10 mins by HTRF assay

SMILES: CCOCCOc1cc2ncnc(Nc3ccc(F)c(Cl)c3)c2cc1NC(=O)/C=C/CN(CC)CC
- IC50: 1.48 nM
